# scFv variants of Ab-14 (light chain) against a SARS-CoV-2 spike peptide

Source: Li et al. 2023 (doi:10.1038/s41467-023-39022-2), MIT Lincoln Laboratory and A-Alpha Bio; data file from the FLAb repository.

Target peptide (SARS-CoV-2 spike, HR2 region): PDVDLGDISGINAS

Each scFv is VH, the linker GGGGSGGGGSGGGGS, VL, as in the parent Ab-14, and differs from it in the CDRs of the light chain only.
VH: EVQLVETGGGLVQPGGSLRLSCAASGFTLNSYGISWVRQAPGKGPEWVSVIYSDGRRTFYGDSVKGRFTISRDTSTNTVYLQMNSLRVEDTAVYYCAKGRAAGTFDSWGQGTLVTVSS
VL: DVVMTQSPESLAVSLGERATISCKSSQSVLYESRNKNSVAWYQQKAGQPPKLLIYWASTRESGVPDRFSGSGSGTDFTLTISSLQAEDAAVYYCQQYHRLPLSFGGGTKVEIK

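This is the validation round: designs drawn from the data on random variants, tested in the same kind of assay. Their group label is 14L_GP_HC (GP: Gaussian process model; HC: hill climbing; a sequence that several methods proposed may carry one label only). AlphaSeq pools MATa yeast showing the antibodies with MATalpha yeast showing the peptide. Mating (16 h, 30 °C) was followed by selection of diploids and sequencing of their barcodes. The ratio of observed to expected reads was calibrated, replicate by replicate, on BCL2-family standards whose Kd was known from biolayer interferometry. The assay was run in six technical replicates.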

Changes read parent residue, position, new residue, counted from the first residue of the VL shown.
The read-out is the apparent dissociation constant on a log10 scale (nM): the lower, the stronger.
Averages over replicates are reported, and they cover detected replicates only.
A pair that was not seen in that replicate is written "nd"; this usually means weak binding, but a binder can also be missed.
Values of this round are not directly comparable with the first-round values of the same sequences.
The authors averaged sequences with at least three values out of six and counted those with two or fewer as poor binders.
Background: pairings of all light chain designs with three empty control strains gave a value in 4% of cases (median 2.64, 5th percentile 1.59). Values in that range, when seen in few replicates, are hard to tell from nonspecific mating. The control count says in how many pairings with the empty strains this scFv gave a signal, with their mean in brackets.

changes,log10 Kd (nM) by replicate,"mean, log10 nM",empty controls
S25G V29W W56G,-0.63 -0.28 -0.41 -0.62 -0.13 -0.26,-0.39,0 of 18
S26N V29W W56G T59K,0.02 -0.09 0.09 -0.39 0.06 0.07,-0.04,0 of 18
S25L S26A W56H S62D,-0.11 -0.06 -0.11 -0.07 -0.10 0.01,-0.07,1 of 18 (4.33)
S25V V29F S38A W56G P101N,nd nd 2.75 nd nd nd,2.75,1 of 18 (2.55)
S25F S33M N35T S38A W56N,0.33 0.26 0.23 0.06 0.35 0.18,0.23,0 of 18
Y31M K36V W56D,0.19 -0.07 0.00 -0.01 0.04 0.29,0.07,0 of 18
Q27W V29Y W56E S103M,0.38 0.16 0.08 0.24 0.40 0.38,0.27,2 of 18 (2.81)
S25L S26P V29T,1.04 0.84 1.72 1.25 2.18 1.81,1.47,0 of 18
K24H S25L Q27D W56N S103N,0.17 -0.04 0.00 -0.26 0.09 0.17,0.02,0 of 18
Q27Y V29Y W56E S103M,0.20 -0.06 0.19 -0.23 0.04 0.33,0.08,0 of 18
K24H Y31D W56D,0.15 -0.03 -0.04 -0.13 -0.15 0.01,-0.03,1 of 18 (2.64)
K24A S25L S28G V29W W56G S62D,-0.28 -0.45 -0.51 -0.47 -0.51 -0.37,-0.43,1 of 18 (4.83)
S25V V29Y R34G N35T W56N T59S,0.37 0.18 0.29 0.22 0.44 0.51,0.33,6 of 18 (3.22)
K24H Q27P L30A W56N E61F,0.66 0.48 0.33 0.21 0.57 0.55,0.47,2 of 18 (2.57)
K24L Q27I V29Y R34M W56E,1.41 0.84 0.68 0.62 0.90 0.55,0.83,0 of 18
S25Q N35D W56D E61S,-0.08 0.60 0.09 -0.13 0.12 0.07,0.11,0 of 18
S25V S26R V29T W56H,0.17 0.13 0.10 -0.07 -0.01 0.18,0.09,0 of 18
K24M V29W W56G Q96D,0.47 0.20 0.18 0.30 0.50 0.42,0.35,0 of 18
V29W R34G W56G S62N,0.18 -0.12 -0.36 -0.23 -0.32 -0.02,-0.14,1 of 18 (3.19)
S26Q S38N W56H,0.46 0.23 0.19 -0.08 0.26 0.32,0.23,1 of 18 (2.65)
S25F Q27P V29W W56N,-0.18 -0.30 -0.20 -0.43 -0.27 -0.24,-0.27,3 of 18 (3.86)
S25L V29Y E32D W56N,-0.16 0.30 -0.27 0.04 -0.32 0.03,-0.06,0 of 18
S26L S28E V29W W56H S62Q,0.74 1.50 0.67 0.50 1.03 1.29,0.96,2 of 18 (2.35)
S25F V29W N35T W56N R99Q,0.04 -0.11 0.24 -0.20 0.07 0.32,0.06,0 of 18
S25M S26E S28G V29D L30E N37G W56G T59V,-0.22 -0.22 -0.23 -0.31 -0.28 -0.26,-0.25,3 of 18 (2.42)
S25L S26L K36V W56H S62D,-0.10 -0.34 -0.58 -0.54 -0.51 -0.27,-0.39,0 of 18
S25V S26L L30E S33G W56H S62D,0.36 0.47 0.39 0.30 0.51 0.57,0.43,0 of 18
S25L S26R V29T L30K K36Q W56M,1.30 1.24 0.88 1.45 1.29 1.10,1.21,1 of 18 (3.42)
K24H Q27P L30G W56N S62E Q96D,0.99 0.28 0.97 0.68 1.13 1.12,0.86,1 of 18 (3.86)
S25L S38A W56D R99W,0.04 -0.24 -0.18 -0.34 -0.22 -0.17,-0.19,1 of 18 (2.10)
S25F V29E Y31F W56D,-0.17 -0.36 -0.33 -0.55 -0.50 -0.27,-0.36,1 of 18 (3.26)
S25C S28E Y31F W56D,0.07 -0.20 -0.29 -0.34 -0.28 0.09,-0.16,0 of 18
V29F W56G T59S,nd 0.92 0.00 1.55 0.25 nd,0.68,0 of 18
S26P Q27I V29L W56A,2.40 1.15 1.33 1.78 1.22 1.67,1.59,2 of 18 (2.49)
S25L S26M S28Q V29T S62E,1.16 1.07 0.38 1.00 1.28 1.43,1.05,4 of 18 (2.25)
S25V Q27P R34F W56N E61M,0.46 0.27 0.10 0.04 0.01 0.31,0.20,0 of 18
S26P W56D S62D Q96S,-0.06 -0.22 -0.33 -0.29 -0.11 0.05,-0.16,2 of 18 (2.99)
K24N V29A W56G A57G S58N,0.33 -0.02 0.07 -0.27 -0.13 0.39,0.06,0 of 18
L30A Y31A K36A W56D,0.10 -0.07 -0.05 -0.16 -0.17 0.09,-0.04,2 of 18 (2.30)
Q27I V29E W56E S62E,0.39 0.23 0.09 -0.43 -0.45 0.09,-0.01,0 of 18
Q27I V29Y Y31G S33K W56D,0.16 0.33 -0.24 -0.24 -0.07 0.08,0.01,0 of 18
S25L V29F N35W W56G T59Q,0.56 0.48 0.45 0.47 0.41 0.47,0.47,3 of 18 (3.06)
K24H S25L Q27F W56N,-0.13 -0.23 -0.38 -0.33 0.07 0.01,-0.17,0 of 18
K24H Q27P K36G W56N S62L,0.43 0.14 0.07 0.24 0.16 0.26,0.22,0 of 18

Picked from the list: the 5 lowest averages where every replicate gave a value.

{"changes": "K24A S25L S28G V29W W56G S62D", "log10 Kd (nM) by replicate": "-0.28 -0.45 -0.51 -0.47 -0.51 -0.37", "mean, log10 nM": "-0.43", "empty controls": "1 of 18 (4.83)"}
{"changes": "S25L S26L K36V W56H S62D", "log10 Kd (nM) by replicate": "-0.10 -0.34 -0.58 -0.54 -0.51 -0.27", "mean, log10 nM": "-0.39", "empty controls": "0 of 18"}
{"changes": "S25G V29W W56G", "log10 Kd (nM) by replicate": "-0.63 -0.28 -0.41 -0.62 -0.13 -0.26", "mean, log10 nM": "-0.39", "empty controls": "0 of 18"}
{"changes": "S25F V29E Y31F W56D", "log10 Kd (nM) by replicate": "-0.17 -0.36 -0.33 -0.55 -0.50 -0.27", "mean, log10 nM": "-0.36", "empty controls": "1 of 18 (3.26)"}
{"changes": "S25F Q27P V29W W56N", "log10 Kd (nM) by replicate": "-0.18 -0.30 -0.20 -0.43 -0.27 -0.24", "mean, log10 nM": "-0.27", "empty controls": "3 of 18 (3.86)"}